According to paper PMC11345844, “Non-Covalent Inhibitors of SARS-CoV-2 Papain-Like Protease (PLpro): In Vitro and In Vivo Antiviral Activity” (Journal of Medicinal Chemistry, 2024):

The molecules below were run against SARS-CoV-2 PLpro (Severe acute respiratory syndrome coronavirus 2, UniProt P0DTD1). Conditions: read-out: Enzyme inhibition IC50.

Compound | IC50
Cc1ccc(NC2CNC2)cc1C(=O)N[C@H](C)c1cccc(-c2cc(C)c(CN3CCCC3)s2)c1 [Compound 15, (R)-5-(Azetidin-3-ylamino)-2-methyl-N-(1-(3-(4-methyl-5-(pyrrolidin-1-ylmethyl)thiophen-2-yl)phenyl)ethyl)benzamide] | 0.92 µM
Cc1ccc(NC2CNC2)cc1C(=O)N[C@H](C)c1cccc(-c2cc(C)c(CN[C@H]3CC[C@@H](O)C3)s2)c1 [Compound 17, 5-(Azetidin-3-ylamino)-N-((R)-1-(3-(5-((((1S,3R)-3-hydroxycyclopentyl)amino)methyl)-4-methylthiophen-2-yl)phenyl)ethyl)-2-methylbenzamide] | 0.33 µM
Cc1ccc(NC2CNC2)cc1C(=O)N[C@H](C)c1cccc(-c2sc(CN[C@H]3CC[C@@H](O)C3)cc2C)c1 [Compound 18, 5-(Azetidin-3-ylamino)-N-((R)-1-(3-(5-((((1S,3R)-3-hydroxycyclopentyl)amino)methyl)-3-methylthiophen-2-yl)phenyl)ethyl)-2-methylbenzamide] | 1.48 µM
Cc1ccc(NC2CNC2)cc1C(=O)N[C@H](C)c1cccc(-c2sc(CNC3CCCC3)cc2C)c1 [Compound 19, (R)-5-(Azetidin-3-ylamino)-N-(1-(3-(5-((cyclopentylamino)methyl)-3-methylthiophen-2-yl)phenyl)ethyl)-2-methylbenzamide] | 1.96 µM
Cc1ccc(NC2CNC2)cc1C(=O)N[C@H](C)c1cccc(-c2sc(CN3CCCC3)cc2C)c1 [Compound 20, (R)-5-(Azetidin-3-ylamino)-2-methyl-N-(1-(3-(3-methyl-5-(pyrrolidin-1-ylmethyl)thiophen-2-yl)phenyl)ethyl)benzamide] | 3.17 µM
Cc1ccc(NC2CNC2)cc1C(=O)N[C@H](C)c1cccc(-c2cc3ccccc3s2)c1 [Compound 22, (R)-5-(Azetidin-3-ylamino)-N-(1-(3-(benzo[b]thiophen-2-yl)phenyl)ethyl)-2-methylbenzamide] | 1.13 µM
Cc1csc(-c2cccc([C@@H](C)NC(=O)c3cc(NC4CNC4)ccc3C)c2)c1 [Compound 24, (R)-5-(Azetidin-3-ylamino)-2-methyl-N-(1-(3-(4-methylthiophen-2-yl)phenyl)ethyl)benzamide] | 1.93 µM
Cc1ccc(NC2CNC2)cc1C(=O)N[C@H](C)c1cccc(-c2sccc2C)c1 [Compound 25, (R)-5-(Azetidin-3-ylamino)-2-methyl-N-(1-(3-(3-methylthiophen-2-yl)phenyl)ethyl)benzamide] | 1.19 µM
Cc1ccc(NC2CNC2)cc1C(=O)N[C@H](C)c1cccc(-c2ccc(-c3ccccc3)s2)c1 [Compound 26, (R)-5-(Azetidin-3-ylamino)-2-methyl-N-(1-(3-(5-phenylthiophen-2-yl)phenyl)ethyl)benzamide] | 4.75 µM
Cc1ccc(NC2CNC2)cc1C(=O)N[C@H](C)c1cccc(-c2ccc(-c3cccs3)s2)c1 [Compound 27, (R)-N-(1-(3-([2,2′-Bithiophen]-5-yl)phenyl)ethyl)-5-(azetidin-3-ylamino)-2-methylbenzamide] | 4.43 µM
Cc1ccc(NC2CNC2)cc1C(=O)N[C@H](C)c1cccc(-c2ccc(C(F)(F)F)s2)c1 [Compound 28, (R)-5-(Azetidin-3-ylamino)-2-methyl-N-(1-(3-(5-(trifluoromethyl)thiophen-2-yl)phenyl)ethyl)benzamide] | 6.12 µM
Cc1ccc(NC2CNC2)cc1C(=O)N[C@H](C)c1cccc(-c2ccc(Cl)s2)c1 [Compound 29, (R)-5-(Azetidin-3-ylamino)-N-(1-(3-(5-chlorothiophen-2-yl)phenyl)ethyl)-2-methylbenzamide] | 1.08 µM
Cc1ccc(NC2CNC2)cc1C(=O)N[C@H](C)c1cccc(-c2cc3sccc3s2)c1 [Compound 30, (R)-5-(Azetidin-3-ylamino)-2-methyl-N-(1-(3-(thieno[3,2-b]thiophen-2-yl)phenyl)ethyl)benzamide] | 0.82 µM
Cc1ccc(NC2CNC2)cc1C(=O)N[C@H](C)c1cccc(-c2ccc(CNC(=O)C3CC3)s2)c1 [Compound 31, (R)-5-(Azetidin-3-ylamino)-N-(1-(3-(5-(cyclopropanecarboxamidomethyl)thiophen-2-yl)phenyl)ethyl)-2-methylbenzamide] | 0.79 µM
Cc1ccc(NC2CNC2)cc1C(=O)N[C@H](C)c1cccc(-c2ccc(CNC(=O)C3CCCC3)s2)c1 [Compound 32, (R)-5-(Azetidin-3-ylamino)-N-(1-(3-(5-(cyclopentanecarboxamidomethyl)thiophen-2-yl)phenyl)ethyl)-2-methylbenzamide] | 0.38 µM
Cc1ccc(NC2CNC2)cc1C(=O)N[C@H](C)c1cccc(-c2ccc(CNC(=O)C3CCOCC3)s2)c1 [Compound 33, (R)-N-((5-(3-(1-(5-(Azetidin-3-ylamino)-2-methylbenzamido)ethyl)phenyl)thiophen-2-yl)methyl)tetrahydro-2H-pyran-4-carboxamide] | 0.82 µM
Cc1ccc(NC2CNC2)cc1C(=O)N[C@H](C)c1cccc(-c2ccc(CNC(=O)C3CCCO3)s2)c1 (stereo partly drawn) [Compound 34, N-((5-(3-((R)-1-(5-(Azetidin-3-ylamino)-2-methylbenzamido)ethyl)phenyl)thiophen-2-yl)methyl)tetrahydrofuran-2-carboxamide] | 0.69 µM
Cc1ccc(NC2CNC2)cc1C(=O)N[C@H](C)c1cccc(-c2ccc(CNC(=O)C3CCNCC3)s2)c1 [Compound 35, (R)-N-((5-(3-(1-(5-(Azetidin-3-ylamino)-2-methylbenzamido)ethyl)phenyl)thiophen-2-yl)methyl)piperidine-4-carboxamide] | 2.4 µM
Cc1ccc(NC2CNC2)cc1C(=O)N[C@H](C)c1cccc(-c2ccc(CNC(=O)C3CNC3)s2)c1 [Compound 36, (R)-N-((5-(3-(1-(5-(Azetidin-3-ylamino)-2-methylbenzamido)ethyl)phenyl)thiophen-2-yl)methyl)azetidine-3-carboxamide] | 1.14 µM
Cc1ccc(NC2CNC2)cc1C(=O)N[C@H](C)c1cccc(-c2ccc(CNC(=O)C3CCC(N)C3)s2)c1 (stereo partly drawn) [Compound 37, N-((1R)-1-(3-(5-((3-Aminocyclopentane-1-carboxamido)methyl)thiophen-2-yl)phenyl)ethyl)-5-(azetidin-3-ylamino)-2-methylbenzamide] | 0.96 µM
Cc1ccc(NC2CNC2)cc1C(=O)N[C@H](C)c1cccc(-c2ccc(CNC(=O)[C@@H]3CCCN3)s2)c1 [Compound 38, (S)-N-((5-(3-((R)-1-(5-(Azetidin-3-ylamino)-2-methylbenzamido)ethyl)phenyl)thiophen-2-yl)methyl)pyrrolidine-2-carboxamide] | 0.55 µM
CCOC(=O)[C@@H]1CC[C@H](NCc2ccc(-c3cccc([C@@H](C)NC(=O)c4cc(NC5CNC5)ccc4C)c3)s2)C1 [Compound 40, Ethyl (1R,3S)-3-(((5-(3-((R)-1-(5-(Azetidin-3-ylamino)-2-methylbenzamido)ethyl)phenyl) Thiophen-2-yl)methyl)amino)cyclopentane-1-carboxylate] | 0.49 µM
Cc1ccc(OCCN)cc1C(=O)N[C@H](C)c1cccc(-c2ccc(CNC3CCCC3)s2)c1 [Compound 47, (R)-5-(2-Aminoethoxy)-N-(1-(3-(5-((cyclopentylamino)methyl)thiophen-2-yl)phenyl)ethyl)-2-methylbenzamide] | 0.26 µM
Cc1ccc(OCCN)cc1C(=O)N[C@H](C)c1cccc(-c2ccc(CN3CCCC3)s2)c1 [Compound 48, (R)-5-(2-Aminoethoxy)-2-methyl-N-(1-(3-(5-(pyrrolidin-1-ylmethyl)thiophen-2-yl)phenyl)ethyl)benzamide] | 0.57 µM
